Publication PMC3189208 (PLoS ONE, 2011)

Chains of the proteins cited; added tags and fusions are not shown.
UniProt P35372, whole entry, looked up: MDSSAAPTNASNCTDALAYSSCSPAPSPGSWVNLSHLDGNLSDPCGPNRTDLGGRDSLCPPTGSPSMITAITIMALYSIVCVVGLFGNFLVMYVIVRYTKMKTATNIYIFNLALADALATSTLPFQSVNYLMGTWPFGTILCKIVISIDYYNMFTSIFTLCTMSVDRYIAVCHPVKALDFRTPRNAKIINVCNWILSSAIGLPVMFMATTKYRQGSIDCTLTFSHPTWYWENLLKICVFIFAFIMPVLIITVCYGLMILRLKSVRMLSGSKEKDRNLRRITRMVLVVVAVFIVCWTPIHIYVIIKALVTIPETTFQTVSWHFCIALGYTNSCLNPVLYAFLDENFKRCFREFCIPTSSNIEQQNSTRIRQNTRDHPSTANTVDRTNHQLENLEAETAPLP

Biological target: human mu opioid receptor (MOR1) in HEK-MOR cells (Homo sapiens, UniProt P35372)
Assay: whole cell cAMP assay compared with DMR
Type: cell-based
Settings: ligand 10 µM, deviation from linear correlation

CN(C(=O)Cc1ccc(Cl)c(Cl)c1)[C@H](CN1CCCC1)c1ccccc1 [ICI 199,441]
bias between DMR response and whole cell cAMP response: biased towards cAMP
